How the values were obtained:
[1] = molecular target: follicle-stimulating hormone (FSH) receptor (Rattus norvegicus, UniProt P20395); test: Rat granulosa EC50 FSH (Assay B); details: read-out: Assay B
Procedure: Example 25. Rat granulosa EC50 FSH (Assay B)
The assay was performed pursuant to the teaching of Yanofsky et al. (2006) Allosteric activation of the follicle-stimulating hormone (FSH) receptor by selective, nonpeptide agonists (JBC 281(19): 13226-13233, which is incorporated by reference in the disclosure of the invention).

Protein sequences, listed by entry. Tags and fused reporters are not part of them. Residues count along the entry.
UniProt P20395, 18-692 limits assumed: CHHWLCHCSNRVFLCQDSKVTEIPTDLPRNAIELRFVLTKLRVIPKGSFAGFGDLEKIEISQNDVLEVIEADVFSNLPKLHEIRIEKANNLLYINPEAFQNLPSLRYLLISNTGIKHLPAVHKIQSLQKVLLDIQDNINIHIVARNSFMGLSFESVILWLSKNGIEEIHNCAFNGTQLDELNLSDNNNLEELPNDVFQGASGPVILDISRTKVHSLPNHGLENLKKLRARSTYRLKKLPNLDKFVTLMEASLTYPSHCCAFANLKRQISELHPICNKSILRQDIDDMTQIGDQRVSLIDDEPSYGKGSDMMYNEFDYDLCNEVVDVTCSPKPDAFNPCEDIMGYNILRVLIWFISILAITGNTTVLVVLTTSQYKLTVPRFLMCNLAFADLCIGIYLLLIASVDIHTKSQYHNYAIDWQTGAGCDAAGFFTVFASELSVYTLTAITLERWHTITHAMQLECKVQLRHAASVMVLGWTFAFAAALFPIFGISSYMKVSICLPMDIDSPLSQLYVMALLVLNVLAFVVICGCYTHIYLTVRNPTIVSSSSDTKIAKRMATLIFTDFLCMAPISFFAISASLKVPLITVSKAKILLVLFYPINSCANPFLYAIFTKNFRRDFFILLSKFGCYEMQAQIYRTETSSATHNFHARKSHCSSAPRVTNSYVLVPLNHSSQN
UniProt P23945, 18-695 limits assumed: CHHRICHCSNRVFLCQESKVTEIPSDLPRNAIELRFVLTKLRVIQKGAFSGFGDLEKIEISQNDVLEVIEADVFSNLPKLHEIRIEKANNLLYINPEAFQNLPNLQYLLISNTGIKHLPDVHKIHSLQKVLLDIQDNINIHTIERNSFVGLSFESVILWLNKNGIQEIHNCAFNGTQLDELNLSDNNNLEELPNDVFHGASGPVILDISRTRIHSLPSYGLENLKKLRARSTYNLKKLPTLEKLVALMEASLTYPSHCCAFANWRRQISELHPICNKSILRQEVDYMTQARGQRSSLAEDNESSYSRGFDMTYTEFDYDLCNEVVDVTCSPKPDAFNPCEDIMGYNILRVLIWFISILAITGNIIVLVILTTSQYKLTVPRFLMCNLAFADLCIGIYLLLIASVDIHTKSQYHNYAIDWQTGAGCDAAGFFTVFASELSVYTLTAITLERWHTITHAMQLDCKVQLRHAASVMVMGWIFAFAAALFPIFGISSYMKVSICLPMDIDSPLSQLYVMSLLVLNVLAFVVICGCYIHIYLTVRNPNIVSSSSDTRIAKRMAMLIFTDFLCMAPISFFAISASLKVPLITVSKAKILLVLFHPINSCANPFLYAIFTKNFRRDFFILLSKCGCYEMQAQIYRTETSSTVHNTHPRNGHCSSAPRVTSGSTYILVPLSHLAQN

FSHR = FSHR (Homo sapiens, UniProt P23945); test: EC50 of cyclic AMP production in CHO FSHR cells + EC20 FSH (Assay A); details: read-out: Assay A; cyclic AMP production in CHO FSHR cells + EC20 FSH (0.265 pM), HTRF
Procedure: Example 24. EC50 of cyclic AMP production in CHO FSHR cells+EC20 FSH (Assay A)
2500 Cho-FSHR-LUC-1-1-43 cells were plated per well in 5 al of phenol red free DMEM/F12+1% FBS. Cells were plated in 384 well, solid white low volume plates (Greiner 784075) by Multidrop. Cells were assayed by adding 100 al of 2×EC20 FSH/IBMX in DMEM/F12+0.1% BSA) by Multidrop to 2 al of test compound stamped in 384 well plates (compounds are diluted 1:50). The final FSH concentration was 0.265 pM, and the final IBMX concentration was 200 μM. The compound plate map was as follows: Column 1: 2 μl of DMSO; Column 2: 2 μl of DMSO; Columns 3-12 and 13-24: 2 μl of test compound, diluted 1:4 in 100% DMSO, or 2 μl of FSH, diluted 1:4 in DMEM/F12+0.1% BSA. The starting concentration for FSH was 50 nM (final concentration was 0.5 nM). Furthermore, Column 23 contained 2 μl of EC100 FSH reference (100×) (diluted in DMEM/F12+0.1% BSA) at a final concentration of 0.5 nM, and Column 24 contained 2 μl of 1 mM AS707664/2 reference compound 2. 5 μl of compound+EC20 FSH mixture were transferred to cell plates (1:2 dilution into 5 μl of cell media) The plates were incubated at 37° C. for 1 h. 10 μl of mixed HTRF (CisBio #62AM4PEC) reagents were added per well and incubated at room temperature for 1 h. The plates were read on Envision using the cAMP HTRF—low volume 384 well protocol. The readout was the calculated fluorescence ratio (665 nm/620 nm). Values given in percent (%) indicate the percental effect (response) at a certain concentration of agonist relative to the maximum response of the FSH standard.

Row | Compound | EC50 [1] [nM] | EC50 (FSHR) [nM]
1 | COc1cc2c(cc1-c1cncc(C(N)=O)c1)-c1c(c(C(=O)N(C)C(C)(C)C)nn1-c1cc(F)cc(Cl)c1)CO2 | < 10 | < 10
2 | COc1cc2c(cc1-c1nn(C)cc1Br)-c1c(c(C(=O)N(C)C(C)(C)C#N)nn1-c1cc(F)cc(F)c1)CO2 | > 500 | < 10
3 | COc1cc2c(cc1-c1cncc(C(N)=O)c1)-c1c(c(C(=O)N3CCOCC3(C)C)nn1-c1cc(F)cc(Cl)c1)CO2 | < 10 | < 10

— patent US10941152B2, “Pyrazole compounds as modulators of FSHR and uses thereof” (TOCOPHERX, INC., priority 2014, dated 2021)
